# Data published in PMC3403872, “Contrasting effects of linaclotide and lubiprostone on restitution of epithelial cell barrier properties and cellular homeostasis after exposure to cell stressors” (BMC Pharmacology, 2012).
# Amino acid sequences for entries named in this document (tags omitted). A change or cut given only in a name is not applied to a line headed by its entry.
# UniProt Q02747: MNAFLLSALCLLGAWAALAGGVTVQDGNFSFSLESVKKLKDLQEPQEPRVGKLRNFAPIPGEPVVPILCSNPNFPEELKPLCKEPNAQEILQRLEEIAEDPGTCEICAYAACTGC
# Where no end group is shown, it is not given here.
# System: guanylate cyclase, GC-C (T84 cells)
substance,measurement,setting,value
"guanylin: well established GC-C activator, Sigma-Aldrich (PGTCEICAYAACTGC; ends and bridges not checked; cysteine pairing not given here; UniProt Q02747 101-115, looked up)",Vmax for increase in [cGMP]i,,9.7 ± 1.3 pmol/10^5 T84 cells
same,EC50,read-out: EC50 for increase in [cGMP]i,29.3 ± 18.4 nM
